Literature values in PMC11609626 (Cancer Discovery, 2024).

Test system: ALK^+ NSCLC
Conditions: ensartinib vs crizotinib; cited from earlier work

## C[C@@H](Oc1cc(-c2cnn(C3CCNCC3)c2)cnc1N)c1c(Cl)ccc(F)c1Cl [Crizotinib]
  mPFS: 12.7 months
